{"sequences": {"note": "Amino acid sequences for entries named in this document (tags omitted). A change or cut given only in a name is not applied to a line headed by its entry.", "UniProt Q16576, whole entry, looked up": "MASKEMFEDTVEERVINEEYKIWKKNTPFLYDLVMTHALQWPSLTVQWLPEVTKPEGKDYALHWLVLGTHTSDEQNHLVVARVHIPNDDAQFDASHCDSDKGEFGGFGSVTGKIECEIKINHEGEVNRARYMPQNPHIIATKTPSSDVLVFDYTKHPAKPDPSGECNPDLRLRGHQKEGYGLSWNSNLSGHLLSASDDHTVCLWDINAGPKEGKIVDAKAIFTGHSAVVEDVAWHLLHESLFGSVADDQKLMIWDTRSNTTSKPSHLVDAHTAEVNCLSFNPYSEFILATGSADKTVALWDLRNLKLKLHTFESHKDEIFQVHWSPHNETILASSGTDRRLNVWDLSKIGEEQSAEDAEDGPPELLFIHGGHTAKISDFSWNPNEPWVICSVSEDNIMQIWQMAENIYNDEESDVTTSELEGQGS", "UniProt O14929": "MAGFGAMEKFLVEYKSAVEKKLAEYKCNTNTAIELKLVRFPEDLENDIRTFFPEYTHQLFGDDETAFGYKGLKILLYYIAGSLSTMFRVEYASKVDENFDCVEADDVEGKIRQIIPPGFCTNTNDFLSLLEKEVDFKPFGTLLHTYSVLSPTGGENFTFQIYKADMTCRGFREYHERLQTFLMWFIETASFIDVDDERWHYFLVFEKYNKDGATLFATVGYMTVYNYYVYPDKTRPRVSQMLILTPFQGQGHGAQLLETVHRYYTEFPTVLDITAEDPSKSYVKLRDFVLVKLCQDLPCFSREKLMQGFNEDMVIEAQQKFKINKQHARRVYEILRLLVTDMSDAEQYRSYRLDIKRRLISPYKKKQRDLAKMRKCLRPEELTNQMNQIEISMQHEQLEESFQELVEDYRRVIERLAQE"}, "source": "ChEMBL document CHEMBL5380855", "about": "“Acetyl-Click Screening Platform Identifies Small-Molecule Inhibitors of Histone Acetyltransferase 1 (HAT1)” (J Med Chem, 2023)", "target": "HAT1/Rbap46 (Homo sapiens) (UniProt Q16576+O14929)", "experiment": "Inhibition of C-terminal FLAG tagged full length human HAT1/Rbap46 transfected in HEK293F cells using histone H4 peptide as substrate and 4-pentynoyl-CoA as cofactor at 1 to 100 uM preincubated for 10 mins followed by 4-pentynoyl-CoA addition and measured after 1 hr by amplex red dye based fluorescence analysis relative to control", "format": "cell-based", "conditions": "dose 1-100 µM, time 70.0 min", "note": "Calls of active or inactive are those of the source. The calls are words filed in the database; no cut-off is given here.", "data": [{"smiles": "Cc1cc2nc3c(=O)[nH]c(=O)nc-3n(C[C@H](O)[C@H](O)[C@H](O)COP(=O)(O)OP(=O)(O)OC[C@H]3O[C@@H](n4cnc5c(N)ncnc54)[C@H](O)[C@@H]3O)c2cc1C", "values": [{"measurement": "inhibition", "value": "inactive"}]}]}
